Data from patent US11352334B2, “3-(5-chloro-2-oxobenzo[d]oxazol-3(2H)-yl) propanoic acid derivatives as KMO inhibitors” (THE UNIVERSITY COURT OF THE UNIVERSITY OF EDINBURGH, priority 2013, dated 2022).
Counter-ions that a name gives are not always drawn.

Chains of the proteins cited; added tags and fusions are not shown. Lines headed by an entry give the natural chain unless they say otherwise; changes in a name come on top.
UniProt O15229: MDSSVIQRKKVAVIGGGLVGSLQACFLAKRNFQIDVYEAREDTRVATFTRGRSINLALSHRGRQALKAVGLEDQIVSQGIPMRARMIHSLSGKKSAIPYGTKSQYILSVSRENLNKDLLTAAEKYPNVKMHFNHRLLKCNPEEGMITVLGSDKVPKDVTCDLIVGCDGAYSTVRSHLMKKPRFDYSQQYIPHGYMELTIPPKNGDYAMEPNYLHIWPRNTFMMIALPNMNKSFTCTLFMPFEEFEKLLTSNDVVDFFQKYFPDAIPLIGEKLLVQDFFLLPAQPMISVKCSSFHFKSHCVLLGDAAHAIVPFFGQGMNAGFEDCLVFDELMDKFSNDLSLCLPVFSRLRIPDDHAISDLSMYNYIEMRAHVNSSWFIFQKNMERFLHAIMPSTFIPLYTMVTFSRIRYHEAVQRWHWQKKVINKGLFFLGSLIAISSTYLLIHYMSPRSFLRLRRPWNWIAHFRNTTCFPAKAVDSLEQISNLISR

Biological target: T1, human KMO (Homo sapiens, UniProt O15229)
T1 construct: Full length human KMO was amplified by PCR from pcDNA5/FRT/V5-His-TOPO/hKMO; made in house; host or cells: Spodoptera frugiperda Sf9 cells (baculovirus); purified membrane fraction used
Experiment: KMO MS Rapidfire assay
Type: biochemical
Details: human KMO-membranes from Sf9 cells, 10 μM Kynurenine, 200 μM NADPH, 3-HK detected by MS
Method: pFastbac1 GST-KMO was transposed into the baculovirus genome using the BAC-to-BAC technology (Invitrogen) and bacmid DNA was prepared and transfected into Spodoptera frugiperda (Sf9) cells using Cellfectin II (Invitrogen).
Cells were harvested after 48 hours and disrupted by blending in 50 mM Hepes, pH 7.4, 1 mM EDTA buffer containing protease inhibitors. A low speed spin (400 g) was used to remove cell debris, followed by a high speed spin (75 000 g) to pellet the membranes. The membranes were purified in a discontinuous sucrose density gradient by re-suspending in 10% (w/v) sucrose and layering over 40% (w/v) sucrose, both in the above buffer. This was centrifuged at 150 000 g and the purified membranes were taken from the interface, collected by centrifugation at 100 000 g, resuspended in buffer and aliquoted for storage at −80° C.
11 point, 3-fold serial dilutions of test compounds were prepared in DMSO and 100 nL of these solutions were dispensed into 384-well V-base polypropylene plates (Greiner Bio-one, Stonehouse, UK) using an Echo 555 acoustic dispenser (Labcyte, Sunnyvale, Calif.). This gave a final assay concentration range between 100 μM and 1.7 nM in 10 μL final assay volume (see below). 100 nL DMSO was dispensed into columns 6 and 18 for high and low controls, respectively, with prior inactivation of the enzyme in column 18 by pre-dispense of 30 μL of 0.5% (v/v) TFA. […]

median pIC50: 8.4
Structure (SMILES): CC(Oc1cc2oc(=O)n(CCC(=O)O)c2cc1Cl)c1ccccn1 (stereo not shown) [Example 2, 3-(5-chloro-2-oxo-6-(1-(pyridin-2-yl)ethoxy)benzo[d]oxazol-3(2H)-yl)propanoic acid, 2-Amino-2-(hydroxymethyl)-1,3-propanediol Salt]
